Laboratory results published in BindingDB's records for doi:10.1038/sj.bjp.0702201 (Smithkline Beecham Pharmaceuticals, 1998).

Sequences of proteins named here, by UniProt entry; tags and fusion partners are left off.
UniProt P08172, whole entry: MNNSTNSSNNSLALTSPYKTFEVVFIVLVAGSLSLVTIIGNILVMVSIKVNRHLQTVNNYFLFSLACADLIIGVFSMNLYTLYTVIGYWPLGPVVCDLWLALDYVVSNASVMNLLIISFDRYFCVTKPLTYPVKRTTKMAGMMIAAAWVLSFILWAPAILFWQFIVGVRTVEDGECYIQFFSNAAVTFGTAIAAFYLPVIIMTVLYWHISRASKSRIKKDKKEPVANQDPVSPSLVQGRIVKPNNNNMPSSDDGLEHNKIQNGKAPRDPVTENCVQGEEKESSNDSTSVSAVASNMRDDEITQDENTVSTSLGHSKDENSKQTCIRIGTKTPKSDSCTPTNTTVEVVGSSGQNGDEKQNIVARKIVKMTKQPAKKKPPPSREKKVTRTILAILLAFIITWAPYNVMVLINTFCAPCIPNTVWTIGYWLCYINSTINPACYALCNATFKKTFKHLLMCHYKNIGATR

Target: Muscarinic acetylcholine receptor M2 (Homo sapiens, UniProt P08172)

For `CCCCCCOc1nsnc1C1=CCCN(C)C1`, the Ki was 0.126 µM.
